Experiment: Toxicity monitoring in the patient study
Type: in vivo, human
Conditions: patients, intravenous infusion
Source text: In order to ensure that toxic limits are not exceeded, the effects of the administration on the subject are monitored. Possible effects include neurological impairment(s), which may manifest itself as cognitive/perceptual abnormalities, numbness in the limbs, difficulty in walking, dizziness, and the like. […] Other side effects may include nausea and vomiting, fatigue, rash, alopecia, and alteration in vital signs such as orthostatic hypotension.
H1/H2 blockers were given orally to the subjects 30-60 minutes prior to infusion to prevent any adverse reactions to the CREMOPHOR® in the composition. […] Thus, a dosage of 9 mg/m^2 required about 10-15 minutes of infusing, while a dose of 150 mg/m^2 required 3-4 hours of dosing. The patients were monitored by testing CBC with differential weekly, various laboratory tests every three weeks, and physical exams including neurological assessment every three weeks. Tumor assessments were made every six weeks.
Other neurological effects included transient motor neuropathy (unsteadiness, ataxia, and dizziness), muscle twitching, and sensory neuropathy occurring as tingling with occasional numbness generally in the fingers and toes. Still other toxicities included fatigue, nausea and vomiting, diarrhea, and constipation.

Q: For `C/C1=C/C[C@@H](/C(C)=C/c2csc(C)n2)OC(=O)C[C@H](O)C(C)(C)C(=O)[C@H](C)[C@@H](O)[C@@H](C)CCC1` [epothilone D, Desoxyepothilone B], which dose-limiting toxicity is on record?
A: primarily neurological

— patent US20040072882A1 (priority 2002, published 2004)
